In PMC2704374, “A Multidrug ABC Transporter with a Taste for Salt” (PLoS ONE, 2009):

Test system: Cl
Experiment: purified protein
Settings: labelled compound; deltapH-driven transport (interior alkaline), pH 7.6 in / pH 6.8 out; no ATP

Q: With “LmrA (Lactococcus cremoris subsp. cremoris MG1363)” as the substance, how does the Km read?
A: Its Km is 17.9 ± 3.7 µM.
